Results published in patent US20090029984A1 (priority 2005, published 2009).

System: mice
[1] = SR141716A 3.0 μmol/kg s.c. (−20 min), then saline + 10% tween 80 i.v.

Cc1c(C(=O)NN2CCCCC2)nn(-c2ccc(Cl)cc2Cl)c1-c1ccc(Cl)cc1 [SR141716A, reference compound]
% of MPE at Tmax [1]: 0.9% | Tail flick latency (s) + s.e.m. at Tmax [1]: 3.61 ± 0.35 s | effect on tail flick latency (in words) (SR141716A 3.0 μmol/kg s.c. alone): had no effect on the tail flick latency
